From PubChem BioAssay AID602346 (Broad Institute, 2012)
Among all 340,000 compounds or so, about 1,200 (0.35%) were called active. All entries are inconclusive by the source's own rule. Clear calls are listed elsewhere. No stated cut-off is given here; in the data, active means inhibition above about 50% (passing the limit was not always enough); inconclusive means no clear call, values can overlap the other calls; inactive means below about 31%.

Test: HIV Vif self-association inhibitors, primary screen, imaging, HEK293T, single point (AID 602346)
Details: HEK293T cells, Vif self-association by quenched fluorescence, 24 h, at 7.49 µM, hits give high values

Row | Compound | inhibition
1 | CCc1nc2c(n1)c1c(non1O)c1c2no[n+]1[O-] | inconclusive: 47.9%
